# Earlier results as cited in patent publication US20230027739A1, “ANTIGEN-BINDING AND ANTIGEN D[…]” (Entrada Therapeutics, Inc., priority 2021, published 2023).
# Conditions: theoretical values as reported by Tien, et al.
compound,measurement,value
O=C(O)[C@@H]1CCCN1 [Proline],"Amino Acid SASA Values, Theoretical",159.0 Å^2
